Source: patent publication US7514419B2, “Phosphorus-containing thyromimetics” (Metabasis Therapeutics, Inc., priority 2003, dated 2009)

Test system: Hypercholesterolemic rats
Assay: Cholesterol lowering in hypercholesterolemic rats
Assay type: in vivo, rat
Conditions: delivered p.o. (0.2 mg/kg/d); percentage change from pre-dose cholesterol

CC(C)c1cc(Oc2c(Br)cc(NCP(=O)(O)O)cc2Br)ccc1O
% Cholesterol Lowering: −19.9%
